Assays:
[1] = test system: Thymidine kinase (Human herpesvirus 1); assay: Antiviral activity against thymidine kinase from Herpes simplex virus type-1 (KOS Strain) infected HeLa (Bu-25-TK-) cells at 500 uM concentration
[2] = test system: Thymidine kinase (Human herpesvirus 2); assay: Antiviral activity against thymidine kinase from Herpes simplex virus type-2 (333 Strain) infected HeLa (Bu-25-TK-) cells at 500 uM concentration

**Q.** For `Cc1cn([C@@H]2O[C@H](CO)[C@@H](O)[C@@H]2O)c(=O)[nH]c1=O`, which inhibition [1] is on record?
**A.** 55.1%

**Q.** What about the inhibition [2] of the same compound?
**A.** 22%
